Test results published in ChEMBL document CHEMBL1148243, “Indoline derivatives as 5-HT(2C) receptor agonists” (Bioorg Med Chem Lett, 2004).

Protein sequences, listed by entry. Tags and fused reporters are not part of them. Lines headed by an entry give the natural chain unless they say otherwise; changes in a name come on top.
UniProt P28223, whole entry: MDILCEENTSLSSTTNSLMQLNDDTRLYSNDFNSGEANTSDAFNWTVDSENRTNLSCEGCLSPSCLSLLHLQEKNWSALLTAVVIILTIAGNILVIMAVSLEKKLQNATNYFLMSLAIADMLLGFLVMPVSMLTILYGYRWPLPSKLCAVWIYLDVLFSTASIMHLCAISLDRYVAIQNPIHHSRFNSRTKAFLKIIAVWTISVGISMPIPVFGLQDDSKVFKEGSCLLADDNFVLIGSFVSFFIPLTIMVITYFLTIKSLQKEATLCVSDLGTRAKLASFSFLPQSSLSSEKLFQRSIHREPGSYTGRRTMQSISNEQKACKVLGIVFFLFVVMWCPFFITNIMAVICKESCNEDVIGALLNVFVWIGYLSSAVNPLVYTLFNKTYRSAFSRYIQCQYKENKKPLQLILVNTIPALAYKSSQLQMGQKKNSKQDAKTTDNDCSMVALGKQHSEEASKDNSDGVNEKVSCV
UniProt P41595, whole entry: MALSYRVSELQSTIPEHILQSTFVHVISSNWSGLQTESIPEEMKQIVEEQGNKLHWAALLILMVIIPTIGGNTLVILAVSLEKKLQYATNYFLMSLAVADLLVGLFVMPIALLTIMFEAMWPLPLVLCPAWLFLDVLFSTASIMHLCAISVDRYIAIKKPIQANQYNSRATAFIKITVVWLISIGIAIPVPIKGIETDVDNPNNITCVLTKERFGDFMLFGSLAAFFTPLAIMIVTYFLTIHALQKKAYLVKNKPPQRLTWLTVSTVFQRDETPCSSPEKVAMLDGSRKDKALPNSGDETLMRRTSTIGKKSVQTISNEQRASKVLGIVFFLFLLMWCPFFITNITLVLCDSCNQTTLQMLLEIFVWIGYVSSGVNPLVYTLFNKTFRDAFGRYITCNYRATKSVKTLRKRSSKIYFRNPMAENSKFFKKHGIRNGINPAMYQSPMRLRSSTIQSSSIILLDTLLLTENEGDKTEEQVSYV
UniProt P28335: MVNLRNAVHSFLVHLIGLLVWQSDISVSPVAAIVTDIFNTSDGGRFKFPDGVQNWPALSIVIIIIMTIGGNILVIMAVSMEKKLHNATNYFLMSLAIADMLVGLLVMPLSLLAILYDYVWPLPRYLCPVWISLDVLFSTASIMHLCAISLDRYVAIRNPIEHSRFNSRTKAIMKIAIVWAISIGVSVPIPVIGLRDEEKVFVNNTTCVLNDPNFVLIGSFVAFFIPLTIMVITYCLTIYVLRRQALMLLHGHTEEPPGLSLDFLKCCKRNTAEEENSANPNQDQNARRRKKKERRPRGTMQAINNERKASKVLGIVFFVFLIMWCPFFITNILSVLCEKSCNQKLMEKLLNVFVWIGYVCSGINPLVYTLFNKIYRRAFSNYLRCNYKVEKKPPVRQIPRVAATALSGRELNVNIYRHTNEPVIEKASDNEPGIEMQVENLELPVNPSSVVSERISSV

Legend:
[1] = target: T1, 5-hydroxytryptamine receptor 2A (Homo sapiens, UniProt P28223); assay: Functional activity against human 5-hydroxytryptamine 2A receptor expressed in CHO cells using fluorometric imaging plate reader; format: cell-based
[2] = target: T1, 5-hydroxytryptamine receptor 2A; assay: Affinity for human 5-hydroxytryptamine 2A receptor expressed in mammalian cell line
[3] = target: T2, 5-hydroxytryptamine receptor 2B (Homo sapiens, UniProt P41595); assay: Functional activity against human 5-hydroxytryptamine 2B receptor expressed in CHO cells using fluorometric imaging plate reader; format: cell-based
[4] = target: T2, 5-hydroxytryptamine receptor 2B; assay: Affinity for human 5-hydroxytryptamine 2B receptor expressed in mammalian cell line
[5] = target: T3, 5-hydroxytryptamine receptor 2C (Homo sapiens, UniProt P28335); assay: Functional activity against human 5-hydroxytryptamine 2C receptor expressed in CHO cells using fluorometric imaging plate reader; format: cell-based
[6] = target: T3, 5-hydroxytryptamine receptor 2C; assay: Affinity for human 5-hydroxytryptamine 2C receptor expressed in mammalian cell line

For `Clc1cccc(N2CCNCC2)c1` [CHLOROPHENYLPIPERAZINE], the EC50 [1] was 75 nM, the Ki [2] was 54 nM and the EC50 [3] was greater than 1000 nM. The Ki [4] was 32 nM, the EC50 [5] was 26 nM and the Ki [6] was 9 nM.
